For five compounds, Ki results are on record in patent US8053553B2, “Targeting host proteinases as a therapeutic strategy against viral and bacterial pathogens” (Socpra Sciences Sante Et Humaines, priority 2007, dated 2011).

Protein sequences, listed by entry. Tags and fused reporters are not part of them. Residues count along the entry.
UniProt P09958, 108-794 limits assumed: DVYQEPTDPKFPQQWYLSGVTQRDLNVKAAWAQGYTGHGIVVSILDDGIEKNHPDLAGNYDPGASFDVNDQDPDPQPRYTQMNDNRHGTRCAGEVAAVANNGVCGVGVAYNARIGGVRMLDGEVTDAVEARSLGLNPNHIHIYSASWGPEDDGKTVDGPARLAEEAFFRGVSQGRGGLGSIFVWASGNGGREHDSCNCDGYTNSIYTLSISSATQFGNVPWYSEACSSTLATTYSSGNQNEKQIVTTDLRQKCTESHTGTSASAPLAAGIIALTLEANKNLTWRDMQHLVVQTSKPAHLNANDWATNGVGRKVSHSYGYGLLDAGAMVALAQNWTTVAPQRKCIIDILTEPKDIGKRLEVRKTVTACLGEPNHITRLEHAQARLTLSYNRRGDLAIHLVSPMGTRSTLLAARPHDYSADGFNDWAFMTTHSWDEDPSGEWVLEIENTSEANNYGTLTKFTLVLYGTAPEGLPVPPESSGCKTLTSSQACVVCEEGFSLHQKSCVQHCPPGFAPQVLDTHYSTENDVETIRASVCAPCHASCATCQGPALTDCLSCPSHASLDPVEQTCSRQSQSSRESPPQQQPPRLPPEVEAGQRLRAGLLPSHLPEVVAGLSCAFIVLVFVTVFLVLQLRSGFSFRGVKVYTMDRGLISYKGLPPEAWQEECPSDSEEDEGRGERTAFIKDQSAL

Read-outs that look alike come from different tables or passages of the source. Bounds are passed on as bounds.

In this assay the target is T1, furin (Homo sapiens, UniProt P09958).
T1 construct: made in house; host or cells: Drosophila S2 cells (Invitrogen expression system)
The experiment in a line: biochemical.

Where [1] appears, read: furin, Pyr-RTKR-AMC substrate, optimization of the inhibitory peptides (Table 3).

The Ki is a measure of affinity in units of concentration, obtained from inhibition or displacement. Lower therefore signals tighter binding. As for `CSC[C@H](NC(=O)[C@H](CCCNC(=N)N)NC(=O)[C@H](CCCCN)NC(=O)[C@H](CCCCN)NC(=O)[C@H](CCCNC(=N)N)NC(=O)[C@H](CCCNC(=N)N)NC(=O)[C@H](CCCNC(=N)N)NC(=O)[C@H](C)NC(=O)[C@H](CCCNC(=N)N)NC(=O)[C@@H]1CCCN1C(=O)[C@@H](N)[C@@H](C)O)C(N)=O`, the affinity corresponds to a Ki of 65 nM.

`CCCC[C@H](NC(=O)[C@H](CCCNC(=N)N)NC(=O)[C@H](CCCCN)NC(=O)[C@H](CCCCN)NC(=O)[C@H](CCCNC(=N)N)NC(=O)[C@H](CCCNC(=N)N)NC(=O)[C@H](CCCNC(=N)N)NC(=O)[C@H](C)NC(=O)[C@H](CCCNC(=N)N)NC(=O)[C@@H]1CCCN1C(=O)[C@@H](N)[C@@H](C)O)C(N)=O`: the Ki was 81 nM.

As to `C[C@@H](O)[C@H](N)C(=O)N1CCC[C@H]1C(=O)N[C@@H](CCC(N)=O)C(=O)N[C@@H](CCCNC(=N)N)C(=O)N[C@@H](CCCNC(N)=O)C(=O)N[C@@H](CCCNC(=N)N)C(=O)N[C@@H](CCCNC(=N)N)C(=O)N[C@@H](CCCNC(=N)N)C(=O)N[C@@H](CCCCN)C(=O)N[C@@H](CCCCN)C(=O)N[C@@H](CCCNC(N)=O)C(=O)NCC(N)=O` [TPQR4RRRKK4G], under setting [1], the inhibition constant Ki is over 100 nM.

Under setting [1], `CSC[C@H](NC(=O)[C@H](CCCNC(=N)N)NC(=O)[C@H](CCC(N)=O)NC(=O)[C@@H]1CCCN1C(=O)[C@@H](N)[C@@H](C)O)C(=O)N[C@@H](CCCNC(=N)N)C(=O)N[C@@H](CCCNC(=N)N)C(=O)N[C@@H](CCCNC(=N)N)C(=O)N[C@@H](CCCCN)C(=O)N[C@@H](CCCCN)C(=O)N[C@@H](CCCNC(=N)N)C(=O)NCC(N)=O` [TPQR5RRRKKRG] showed an inhibition constant (Ki) of over 100 nM.

Compound `CCCC[C@H](NC(=O)[C@H](CCCNC(=N)N)NC(=O)[C@H](CCC(N)=O)NC(=O)[C@@H]1CCCN1C(=O)[C@@H](N)[C@@H](C)O)C(=O)N[C@@H](CCCNC(=N)N)C(=O)N[C@@H](CCCNC(=N)N)C(=O)N[C@@H](CCCNC(=N)N)C(=O)N[C@@H](CCCCN)C(=O)N[C@@H](CCCCN)C(=O)N[C@@H](CCCNC(=N)N)C(=O)NCC(N)=O` [TPQR6RRRKKRG] returned an inhibition constant (Ki) under setting [1] of over 100 nM.
